From patent US20150079168A1 (Keryx Biopharmaceuticals, Inc., priority 2012, published 2015) come the findings set out here.

A short description of the data set: Intrinsic dissolution rate. To be noted: Table 6.

As to “ferric citrate [High Purity Ferric Citrate]”, the “Mean Intrinsic Dissolution Rates” value is 2.64 mg/cm^2/min.
